Here are results for one substance from patent publication US20120122214A1.

Sequences of proteins named here, by UniProt entry; tags and fusion partners are left off. Residues count along the entry.
UniProt P05067, 672-713 limits assumed: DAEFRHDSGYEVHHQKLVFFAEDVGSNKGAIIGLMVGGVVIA

The target of this assay is β-amyloid peptide (Amyloid β-Protein 1-42; Wako Chemicals) (human) (UniProt P05067). The assay can be described thus: flow cytometry; iPS-MP in suspension with β-amyloid-coated fluorescent particles, 37° C., 90 minutes.

Regarding “single-chain antibody (scFv) recognizing human β-amyloid peptide, derived from mouse hybridoma clone 3D6, fused to mouse IgG2a Fc portion and mouse Fc receptor (FcγRI) trans-cell membrane-cytoplasm portion, expressed on iPS-MP”, the mean fluorescence intensity turned out to be 1350 and the percent of cells bound to the beads is 60.3%.
